By UniProt entry, the sequences of proteins in these tests, tags left out.
UniProt P0DMS8, whole entry: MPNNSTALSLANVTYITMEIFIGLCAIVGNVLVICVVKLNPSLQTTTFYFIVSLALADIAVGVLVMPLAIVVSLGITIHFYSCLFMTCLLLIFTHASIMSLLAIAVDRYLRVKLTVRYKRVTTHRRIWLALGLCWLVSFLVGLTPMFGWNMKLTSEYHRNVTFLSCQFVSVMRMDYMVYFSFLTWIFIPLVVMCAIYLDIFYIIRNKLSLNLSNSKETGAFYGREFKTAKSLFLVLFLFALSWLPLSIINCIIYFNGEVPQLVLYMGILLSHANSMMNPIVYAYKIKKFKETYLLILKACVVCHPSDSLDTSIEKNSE

In patent US7964731B2, “Isotopically marked quinoline derivatives as adenosin A3 receptor ligands” (Sanofi-Aventis, priority 2004, dated 2011):

Tests used:
[1] = molecular target: T1, human A3 receptors (CHO-hA3 membrane preparation) (Homo sapiens, UniProt P0DMS8); assay: Human adenosine A3 receptor binding in the presence of the radioactive iodine-containing compound of Example 2/a; conditions: radioligand of Example 2/a, 4 μg CHO-hA3 preparation, Cheng-Prusoff from IC50; read-out: Ki, the radioligand given in Example 2/a
[2] = molecular target: T1, human A3 receptors (CHO-hA3 membrane preparation); assay: Human adenosine A3 receptor binding in the presence of [125I]AB-MECA; conditions: radioligand [125I]AB-MECA, 4 μg CHO-hA3 preparation, Cheng-Prusoff from IC50

## C[C@H](Cc1ccccc1)Nc1ncnc2c1ncn2[C@@H]1O[C@H](CO)[C@@H](O)[C@H]1O [R-PIA, N^6-[L-2-phenylisopropyl]adenosine, reference compound]
[1]
  Ki: 150 nM
[2]
  Ki: 65 nM
